Reference: ChEMBL document CHEMBL4725350, “2-Oxaadamant-1-yl Ureas as Soluble Epoxide Hydrolase Inhibitors: In Vivo Evaluation in a Murine Model of Acute Pancreatitis” (J Med Chem, 2020)
Calls of active or inactive are those of the source. The calls are words filed in the database; no cut-off is given here.

Legend:
[1] = Selectivity ratio of inhibition of recombinant human CYP3A4 to IC50 for inhibition of recombinant mouse soluble epoxide hydrolase using 7-BFC as substrate
[2] = species on record: Homo sapiens; experiment: Selectivity ratio of inhibition of recombinant human CYP2C9 to IC50 for inhibition of recombinant human soluble epoxide hydrolase
[3] = Selectivity ratio of inhibition of recombinant human CYP3A4 to IC50 for inhibition of recombinant mouse soluble epoxide hydrolase using DBF as substrate
[4] = species on record: Homo sapiens; experiment: Selectivity ratio of inhibition of recombinant human CYP1A2 to IC50 for inhibition of recombinant human soluble epoxide hydrolase
[5] = Selectivity ratio of inhibition of recombinant human CYP2C19 to IC50 for inhibition of recombinant mouse soluble epoxide hydrolase
[6] = Selectivity ratio of inhibition of recombinant human CYP2D6 to IC50 for inhibition of recombinant mouse soluble epoxide hydrolase
[7] = species on record: Homo sapiens; experiment: Selectivity ratio of inhibition of recombinant human CYP2C19 to IC50 for inhibition of recombinant human soluble epoxide hydrolase
[8] = species on record: Homo sapiens; experiment: Selectivity ratio of inhibition of recombinant human CYP3A4 to IC50 for inhibition of recombinant human soluble epoxide hydrolase using DBF as substrate
[9] = Selectivity ratio of inhibition of recombinant human CYP2C9 to IC50 for inhibition of recombinant mouse soluble epoxide hydrolase
[10] = species on record: Homo sapiens; experiment: Selectivity ratio of inhibition of recombinant human CYP2D6 to IC50 for inhibition of recombinant human soluble epoxide hydrolase
[11] = Selectivity ratio of inhibition of recombinant human CYP1A2 to IC50 for inhibition of recombinant mouse soluble epoxide hydrolase
[12] = species on record: Homo sapiens; experiment: Selectivity ratio of inhibition of recombinant human CYP3A4 to IC50 for inhibition of recombinant human soluble epoxide hydrolase using 7-BFC as substrate
[13] = target: T1, Polyunsaturated fatty acid 5-lipoxygenase (Homo sapiens) (UniProt P09917); experiment: Inhibition of recombinant human full-length LOX5 (1 to 674 residues) expressed in insect cells using arachidonic acid as substrate preincubated for 10 mins followed by substrate addition measured after 20 mins by H2DCFDA probe based fluorescence assay; conditions: time 30.0 min
T1 sequence (whole entry): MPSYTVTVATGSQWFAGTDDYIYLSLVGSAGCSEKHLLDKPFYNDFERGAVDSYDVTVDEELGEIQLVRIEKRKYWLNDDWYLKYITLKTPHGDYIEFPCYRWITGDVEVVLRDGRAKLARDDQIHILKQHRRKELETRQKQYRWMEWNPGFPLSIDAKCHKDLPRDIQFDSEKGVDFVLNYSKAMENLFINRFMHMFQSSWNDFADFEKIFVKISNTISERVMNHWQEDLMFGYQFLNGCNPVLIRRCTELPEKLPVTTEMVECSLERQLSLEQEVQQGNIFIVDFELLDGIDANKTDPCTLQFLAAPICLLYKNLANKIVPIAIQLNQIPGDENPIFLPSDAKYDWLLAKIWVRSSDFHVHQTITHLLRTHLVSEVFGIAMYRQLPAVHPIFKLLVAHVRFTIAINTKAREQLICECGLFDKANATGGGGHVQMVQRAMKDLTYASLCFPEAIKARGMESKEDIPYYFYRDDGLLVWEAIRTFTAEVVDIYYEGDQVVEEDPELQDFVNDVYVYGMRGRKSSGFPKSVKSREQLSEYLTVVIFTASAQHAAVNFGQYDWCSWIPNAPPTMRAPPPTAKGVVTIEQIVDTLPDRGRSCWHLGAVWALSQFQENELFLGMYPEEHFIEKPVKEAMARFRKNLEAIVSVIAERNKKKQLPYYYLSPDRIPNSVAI

Work on `CC(C)S(=O)(=O)N1CCC(NC(=O)NC23CC4CC(CC(C4)O2)C3)CC1` yielded a Selectivity ratio [1] of over 100, a Selectivity ratio [2] of over 100 and a Selectivity ratio [3] of over 100. It also gave a Selectivity ratio [4] of over 100, a Selectivity ratio [5] of over 100 and a Selectivity ratio [6] of over 100. It also gave a Selectivity ratio [7] of over 100, a Selectivity ratio [8] of over 100 and a Selectivity ratio [9] of over 100. The Selectivity ratio [10] was over 100, the Selectivity ratio [11] was over 100 and the Selectivity ratio [12] was over 100. The inhibition [13] was “inactive”.
